# Results taken from IntAct's records for PubMed 35512704.
# B1: RAC-alpha serine/threonine-protein kinase (Homo sapiens), P31749 (parent)
# chain: MSDVAIVKEGWLHKRGEYIKTWRPRYFLLKNDGTFIGYKERPQDVDQREAPLNNFSVAQCQLMKTERPRPNTFIIRCLQWTTVIERTFHVETPEEREEWTTAIQTVADGLKKQEEEEMDFRSGSPSDNSGAEEMEVSLAKPKHRVTMNEFEYLKLLGKGTFGKVILVKEKATGRYYAMKILKKEVIVAKDEVAHTLTENRVLQNSRHPFLTALKYSFQTHDRLCFVMEYANGGELFFHLSRERVFSEDRARFYGAEIVSALDYLHSEKNVVYRDLKLENLMLDKDGHIKITDFGLCKEGIKDGATMKTFCGTPEYLAPEVLEDNDYGRAVDWWGLGVVMYEMMCGRLPFYNQDHEKLFELILMEEIRFPRTLGPEAKSLLSGLLKKDPKQRLGGGSEDAKEIMQHRFFAGIVWQHVYEKKLSPPFKPQVTSETDTRYFDEEFTAQMITITPPDQDDSMECVDSERRPHFPQFSYSASGTA
# partner: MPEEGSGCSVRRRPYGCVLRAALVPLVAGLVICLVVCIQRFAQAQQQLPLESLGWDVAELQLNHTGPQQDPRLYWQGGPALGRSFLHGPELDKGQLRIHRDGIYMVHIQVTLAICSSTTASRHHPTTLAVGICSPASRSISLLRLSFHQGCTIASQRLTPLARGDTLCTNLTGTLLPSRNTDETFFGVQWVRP
# B2: RAC-alpha serine/threonine-protein kinase (Homo sapiens), P31749 (parent)
# chain: B1 chain
# partner: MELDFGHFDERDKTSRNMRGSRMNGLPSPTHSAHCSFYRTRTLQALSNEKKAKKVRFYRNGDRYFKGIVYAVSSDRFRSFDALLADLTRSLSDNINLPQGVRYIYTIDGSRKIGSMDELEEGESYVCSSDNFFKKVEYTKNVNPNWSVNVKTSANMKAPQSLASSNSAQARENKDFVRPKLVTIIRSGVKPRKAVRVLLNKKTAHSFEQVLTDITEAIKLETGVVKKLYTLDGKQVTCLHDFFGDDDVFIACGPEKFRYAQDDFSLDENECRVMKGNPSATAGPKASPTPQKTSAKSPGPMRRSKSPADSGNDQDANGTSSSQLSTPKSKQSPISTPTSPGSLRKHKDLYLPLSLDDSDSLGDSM
# B3: RAC-alpha serine/threonine-protein kinase (Homo sapiens), P31749 (parent)
# chain: B1 chain
# partner: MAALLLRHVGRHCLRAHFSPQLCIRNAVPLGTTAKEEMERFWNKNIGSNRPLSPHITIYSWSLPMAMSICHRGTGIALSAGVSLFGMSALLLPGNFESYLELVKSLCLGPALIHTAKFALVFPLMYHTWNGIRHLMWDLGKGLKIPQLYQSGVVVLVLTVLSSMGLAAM
# B4: RAC-alpha serine/threonine-protein kinase (Homo sapiens), P31749 (parent)
# chain: B1 chain
# partner: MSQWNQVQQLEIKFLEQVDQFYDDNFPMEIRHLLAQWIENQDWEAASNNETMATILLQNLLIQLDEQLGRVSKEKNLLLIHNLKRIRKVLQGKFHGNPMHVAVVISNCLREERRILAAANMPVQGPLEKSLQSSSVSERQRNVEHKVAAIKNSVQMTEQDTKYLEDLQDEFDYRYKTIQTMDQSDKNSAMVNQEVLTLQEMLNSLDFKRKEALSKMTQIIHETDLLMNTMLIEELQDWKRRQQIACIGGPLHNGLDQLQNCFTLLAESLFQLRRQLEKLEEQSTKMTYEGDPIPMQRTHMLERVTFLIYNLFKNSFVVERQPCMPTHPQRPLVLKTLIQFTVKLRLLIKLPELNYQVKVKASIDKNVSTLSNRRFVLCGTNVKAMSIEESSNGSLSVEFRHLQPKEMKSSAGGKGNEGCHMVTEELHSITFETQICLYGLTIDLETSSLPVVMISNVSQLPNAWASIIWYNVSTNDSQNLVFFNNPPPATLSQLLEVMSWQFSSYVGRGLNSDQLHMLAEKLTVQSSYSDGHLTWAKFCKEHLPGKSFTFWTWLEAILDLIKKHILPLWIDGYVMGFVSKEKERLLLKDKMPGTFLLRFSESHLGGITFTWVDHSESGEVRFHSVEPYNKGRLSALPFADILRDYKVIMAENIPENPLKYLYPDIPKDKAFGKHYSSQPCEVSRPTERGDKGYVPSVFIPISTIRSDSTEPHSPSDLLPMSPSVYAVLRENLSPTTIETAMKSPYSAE
# B5: RAC-alpha serine/threonine-protein kinase (Homo sapiens), P31749 (parent)
# chain: B1 chain
# partner: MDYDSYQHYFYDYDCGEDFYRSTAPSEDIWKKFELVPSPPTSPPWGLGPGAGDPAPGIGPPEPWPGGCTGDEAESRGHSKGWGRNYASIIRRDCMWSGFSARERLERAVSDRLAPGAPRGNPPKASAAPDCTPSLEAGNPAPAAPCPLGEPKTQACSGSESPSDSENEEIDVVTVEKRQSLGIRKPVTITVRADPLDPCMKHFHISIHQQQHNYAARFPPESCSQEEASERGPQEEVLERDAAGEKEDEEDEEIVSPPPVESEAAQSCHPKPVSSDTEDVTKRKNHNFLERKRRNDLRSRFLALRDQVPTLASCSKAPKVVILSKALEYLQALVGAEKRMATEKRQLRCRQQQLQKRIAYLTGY
# B6: RAC-alpha serine/threonine-protein kinase (Homo sapiens), P31749 (parent)
# chain: B1 chain
# partner: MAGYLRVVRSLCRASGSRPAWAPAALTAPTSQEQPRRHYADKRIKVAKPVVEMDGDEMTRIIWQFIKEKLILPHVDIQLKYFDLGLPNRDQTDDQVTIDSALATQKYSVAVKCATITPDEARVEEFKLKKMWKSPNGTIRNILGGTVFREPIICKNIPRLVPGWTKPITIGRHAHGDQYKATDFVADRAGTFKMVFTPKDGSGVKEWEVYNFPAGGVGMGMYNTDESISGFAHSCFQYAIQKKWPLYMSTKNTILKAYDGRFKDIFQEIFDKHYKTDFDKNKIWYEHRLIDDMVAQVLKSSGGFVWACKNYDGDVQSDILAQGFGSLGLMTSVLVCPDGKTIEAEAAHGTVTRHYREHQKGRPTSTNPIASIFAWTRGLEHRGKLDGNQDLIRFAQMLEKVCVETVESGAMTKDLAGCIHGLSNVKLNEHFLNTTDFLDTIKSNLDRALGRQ
# B7: RAC-alpha serine/threonine-protein kinase (Homo sapiens), P31749 (parent)
# chain: B1 chain
# partner: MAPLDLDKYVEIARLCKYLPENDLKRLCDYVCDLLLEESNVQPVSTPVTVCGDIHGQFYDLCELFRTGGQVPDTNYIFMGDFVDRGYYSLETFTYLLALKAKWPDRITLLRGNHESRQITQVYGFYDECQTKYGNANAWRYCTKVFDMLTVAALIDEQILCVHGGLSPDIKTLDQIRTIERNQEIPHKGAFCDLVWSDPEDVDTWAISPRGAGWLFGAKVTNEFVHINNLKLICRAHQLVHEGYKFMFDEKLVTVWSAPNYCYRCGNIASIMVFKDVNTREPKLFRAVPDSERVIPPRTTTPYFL
# B8: RAC-alpha serine/threonine-protein kinase (Homo sapiens), P31749 (parent)
# chain: B1 chain
# partner: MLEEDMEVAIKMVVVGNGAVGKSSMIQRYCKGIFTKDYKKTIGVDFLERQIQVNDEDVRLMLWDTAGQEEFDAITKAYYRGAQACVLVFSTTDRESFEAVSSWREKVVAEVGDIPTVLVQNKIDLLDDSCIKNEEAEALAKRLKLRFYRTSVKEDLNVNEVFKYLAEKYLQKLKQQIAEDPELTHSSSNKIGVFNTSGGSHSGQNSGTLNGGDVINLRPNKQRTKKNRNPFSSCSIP
# B9: RAC-alpha serine/threonine-protein kinase (Homo sapiens), P31749 (parent)
# chain: B1 chain
# partner: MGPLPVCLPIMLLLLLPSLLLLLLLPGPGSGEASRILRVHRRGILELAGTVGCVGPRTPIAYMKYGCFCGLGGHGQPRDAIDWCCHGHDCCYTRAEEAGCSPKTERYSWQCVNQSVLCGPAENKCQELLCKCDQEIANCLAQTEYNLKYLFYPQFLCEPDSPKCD
# B10: RAC-alpha serine/threonine-protein kinase (Homo sapiens), P31749 (parent)
# chain: B1 chain
# partner: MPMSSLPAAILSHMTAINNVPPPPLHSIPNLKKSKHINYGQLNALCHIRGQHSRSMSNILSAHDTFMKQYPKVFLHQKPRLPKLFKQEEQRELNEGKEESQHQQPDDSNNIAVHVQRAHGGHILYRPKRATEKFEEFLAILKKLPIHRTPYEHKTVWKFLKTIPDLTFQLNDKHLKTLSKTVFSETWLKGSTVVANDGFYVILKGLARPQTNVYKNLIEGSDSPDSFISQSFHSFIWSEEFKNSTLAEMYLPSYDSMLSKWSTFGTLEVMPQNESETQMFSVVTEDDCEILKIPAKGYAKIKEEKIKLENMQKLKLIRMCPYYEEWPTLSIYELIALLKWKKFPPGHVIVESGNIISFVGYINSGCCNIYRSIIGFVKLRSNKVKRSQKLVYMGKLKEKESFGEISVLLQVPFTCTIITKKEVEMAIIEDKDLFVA
# Variants of: B1
# Settings: with cd70_human CD70, P32970
row,effect of a mutation on the interaction,Variant
1,causing an interaction,E17K

# Variants of: B1
# Settings: with cd70_human CD70, P32970
# Remark: another data set of the same source
row,effect of a mutation on the interaction,Variant
1,increasing interaction strength,E17K

# Variants of: B2
# Settings: with dcx_human DCX
row,effect of a mutation on the interaction,Variant
1,disrupting interaction strength,E17K

# Variants of: B3
# Settings: with c560_human SDHC
row,effect of a mutation on the interaction,Variant
1,with no effect,E17K

# Variants of: B4
# Settings: with stat4_human STAT4, Q14765
row,effect of a mutation on the interaction,Variant
1,with no effect,E17K

# Variants of: B5
# Settings: with mycl_human MYCL
row,effect of a mutation on the interaction,Variant
1,with no effect,E17K

# Variants of: B6
# Settings: with idhp_human IDH2, P48735
row,effect of a mutation on the interaction,Variant
1,with no effect,E17K

# Variants of: B7
# Settings: with ppp6_human PPP6C
row,effect of a mutation on the interaction,Variant
1,with no effect,E17K

# Variants of: B8
# Settings: with rab23_human RAB23, Q9ULC3
row,effect of a mutation on the interaction,Variant
1,with no effect,E17K

# Variants of: B9
# Settings: with pa2gx_human PLA2G10, O15496
row,effect of a mutation on the interaction,Variant
1,with no effect,E17K

# Variants of: B10
# Settings: with cnbd1_human CNBD1, Q8NA66
row,effect of a mutation on the interaction,Variant
1,causing an interaction,E17K
